# Assay results as given in ChEMBL document CHEMBL1134447 (J Med Chem, 2001).
# How the values were obtained:
# [1] = Partition coefficient (logD7.4); settings: octanol/water, pH 7.4
# [2] = Solubility (phosphate buffered saline); settings: buffer
Structure (SMILES),logD [1],S [2] [µM]
O=C(/C=C/c1cc2c(cc1[N+](=O)[O-])OCO2)N1CCC2(CC1)C(=O)NCN2c1ccccc1,3.1,24.3
O=C(c1cc2cc(Cl)ccc2[nH]1)N1CCN(S(=O)(=O)c2ccc([N+](=O)[O-])cc2[N+](=O)[O-])CC1,> 4,< 10
O=C(OCc1ccc2nsnc2c1)N1CCC2(CC1)C(=O)NCN2c1ccccc1,3.4,< 10
O=C(O)CN1CN(c2ccccc2)C2(CCN(C(=O)OCc3cc4c(cc3Cl)OCO4)CC2)C1=O,0.7,98.1
O=C(OCc1cc2c(cc1[N+](=O)[O-])OCO2)N1CCC(n2c(O)nc3ccccc32)CC1,,< 10
O=C(OCc1cccnc1)N1CCC2(CC1)C(=O)NCN2c1ccccc1,,105
COc1cc(CC(=O)N2CCC(n3c(O)nc4ccccc43)CC2)c([N+](=O)[O-])cc1OC,2.4,< 10
O=C(NCc1ccc2c(c1)OCO2)N1CCC2(CC1)C(=O)NCN2c1ccccc1,2.8,28.8
O=C(Cc1c[nH]c2ccc(Br)cc12)N1CCN(c2ccc([N+](=O)[O-])c3nonc23)CC1,,< 10
Cc1ncc([N+](=O)[O-])n1CCNC(=O)N1CCC(c2cc(-c3ccc(Cl)cc3Cl)n[nH]2)CC1,,46.5
O=C(NCCn1c(=O)[nH]c2ccccc21)OCc1cc2c(cc1Cl)OCO2,,< 10
O=C1CNc2ccccc2N1C1CCN(Cc2cc3c(cc2Cl)OCO3)CC1,1.3,46.4
O=C(OCc1cc2c(cc1[N+](=O)[O-])OCO2)N1CCC2(CC1)C(=O)NCN2c1ccccc1,,< 10
COc1cc(/C=C/C(=O)N2CCC3(CC2)C(=O)NCN3c2ccccc2)c([N+](=O)[O-])cc1OC,3,34.8
